Assay results taken from ChEMBL document CHEMBL1133645, “(S)-4-Methyl-2-(methylamino)pentanoic acid [4, 4-bis(4-fluorophenyl)butyl]amide hydrochloride, a novel calcium channel antagonist, is efficacious in several animal models of pain” (J Med Chem, 2000).

Sequences of proteins named here, by UniProt entry; tags and fusion partners are left off.
UniProt Q00975, whole entry: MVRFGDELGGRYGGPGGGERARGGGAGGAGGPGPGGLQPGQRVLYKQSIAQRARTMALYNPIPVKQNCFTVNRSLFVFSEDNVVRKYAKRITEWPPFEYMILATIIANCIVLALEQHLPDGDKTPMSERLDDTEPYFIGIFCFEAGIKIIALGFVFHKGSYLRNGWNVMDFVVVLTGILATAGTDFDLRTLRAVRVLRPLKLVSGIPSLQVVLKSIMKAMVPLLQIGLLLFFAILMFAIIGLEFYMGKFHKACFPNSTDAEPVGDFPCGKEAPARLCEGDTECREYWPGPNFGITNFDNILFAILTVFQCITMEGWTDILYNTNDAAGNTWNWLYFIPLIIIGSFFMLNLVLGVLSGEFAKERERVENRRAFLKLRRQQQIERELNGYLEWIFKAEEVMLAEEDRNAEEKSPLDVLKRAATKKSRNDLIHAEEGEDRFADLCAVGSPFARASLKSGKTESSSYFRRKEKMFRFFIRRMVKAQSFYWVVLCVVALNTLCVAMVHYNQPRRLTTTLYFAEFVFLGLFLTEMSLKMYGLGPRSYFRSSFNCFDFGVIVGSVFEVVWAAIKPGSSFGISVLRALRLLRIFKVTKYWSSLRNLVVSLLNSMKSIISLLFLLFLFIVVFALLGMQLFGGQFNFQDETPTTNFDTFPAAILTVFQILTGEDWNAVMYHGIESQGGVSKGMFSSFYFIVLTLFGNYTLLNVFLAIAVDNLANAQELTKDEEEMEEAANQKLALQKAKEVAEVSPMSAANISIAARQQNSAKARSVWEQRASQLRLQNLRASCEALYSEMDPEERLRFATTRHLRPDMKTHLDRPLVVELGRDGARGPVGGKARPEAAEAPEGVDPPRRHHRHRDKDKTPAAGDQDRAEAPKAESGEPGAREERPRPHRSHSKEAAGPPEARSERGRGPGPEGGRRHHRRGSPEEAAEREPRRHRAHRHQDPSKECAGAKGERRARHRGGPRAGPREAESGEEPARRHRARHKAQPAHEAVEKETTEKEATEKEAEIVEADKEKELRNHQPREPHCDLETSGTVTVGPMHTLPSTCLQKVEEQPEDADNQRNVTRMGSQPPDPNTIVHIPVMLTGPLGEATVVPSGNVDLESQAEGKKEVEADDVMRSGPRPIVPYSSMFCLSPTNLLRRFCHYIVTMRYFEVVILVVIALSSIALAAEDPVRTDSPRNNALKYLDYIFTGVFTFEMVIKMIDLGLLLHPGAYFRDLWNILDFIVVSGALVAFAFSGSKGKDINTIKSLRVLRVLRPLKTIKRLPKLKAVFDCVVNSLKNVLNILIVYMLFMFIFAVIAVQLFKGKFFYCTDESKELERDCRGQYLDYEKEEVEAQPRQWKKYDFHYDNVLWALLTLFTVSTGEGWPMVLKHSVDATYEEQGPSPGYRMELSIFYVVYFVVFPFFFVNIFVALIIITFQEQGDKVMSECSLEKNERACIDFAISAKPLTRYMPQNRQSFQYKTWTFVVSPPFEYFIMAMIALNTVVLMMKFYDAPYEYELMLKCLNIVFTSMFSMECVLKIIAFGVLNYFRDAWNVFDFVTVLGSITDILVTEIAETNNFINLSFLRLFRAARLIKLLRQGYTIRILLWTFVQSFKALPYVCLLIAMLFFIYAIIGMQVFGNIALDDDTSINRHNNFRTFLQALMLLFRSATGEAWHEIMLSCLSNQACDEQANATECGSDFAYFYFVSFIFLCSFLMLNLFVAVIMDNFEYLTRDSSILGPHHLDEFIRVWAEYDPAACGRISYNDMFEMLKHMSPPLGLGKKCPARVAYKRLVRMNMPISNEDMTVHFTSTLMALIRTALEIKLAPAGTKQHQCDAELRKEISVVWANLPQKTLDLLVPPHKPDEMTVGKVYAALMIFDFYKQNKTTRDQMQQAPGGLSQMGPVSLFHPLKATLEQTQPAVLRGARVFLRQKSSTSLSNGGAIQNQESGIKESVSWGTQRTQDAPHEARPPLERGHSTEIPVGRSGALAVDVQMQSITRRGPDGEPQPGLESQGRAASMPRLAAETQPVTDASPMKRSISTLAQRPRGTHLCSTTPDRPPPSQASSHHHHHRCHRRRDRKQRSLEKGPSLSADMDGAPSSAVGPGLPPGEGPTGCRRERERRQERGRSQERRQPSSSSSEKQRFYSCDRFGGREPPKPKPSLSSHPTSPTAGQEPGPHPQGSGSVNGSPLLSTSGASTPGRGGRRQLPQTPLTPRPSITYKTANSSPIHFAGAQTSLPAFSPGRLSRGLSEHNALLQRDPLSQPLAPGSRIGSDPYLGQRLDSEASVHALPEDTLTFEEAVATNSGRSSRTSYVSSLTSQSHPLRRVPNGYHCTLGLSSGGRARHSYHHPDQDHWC

Molecular target: Voltage-dependent N-type calcium channel subunit alpha-1B (Homo sapiens, UniProt Q00975)
Assay: Inhibition of N-type calcium channel in IMR32 human neuroblastoma cells using fluorescent [Ca2+] indicator Indo-1 in the presence of 5 uM nitrendipine (L-type [Ca2+] channel inhibitor)
Type: functional

CN[C@@H](CC(C)C)C(=O)NCCCC(c1ccc(F)cc1)c1ccc(F)cc1.Cl
IC50: 1.5 µM
